This passage reports IC50 results from publication PMC7069796 (Breast cancer research and treatment, 2020).

By UniProt entry, the sequences of proteins in these tests, tags left out. Residues count along the entry.
UniProt P03372, 282-595 Y537S: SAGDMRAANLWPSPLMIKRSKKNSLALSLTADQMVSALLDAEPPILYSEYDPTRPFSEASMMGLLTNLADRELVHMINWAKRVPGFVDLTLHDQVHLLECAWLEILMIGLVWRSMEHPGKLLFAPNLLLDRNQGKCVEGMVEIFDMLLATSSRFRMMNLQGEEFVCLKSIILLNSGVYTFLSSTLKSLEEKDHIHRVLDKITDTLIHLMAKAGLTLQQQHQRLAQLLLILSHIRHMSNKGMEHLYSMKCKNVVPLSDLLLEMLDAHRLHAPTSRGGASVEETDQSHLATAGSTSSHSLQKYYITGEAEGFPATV

In this assay the target is Estrogen Receptor Alpha (ERα) (Homo sapiens, UniProt P03372, Y537S). Nature of the assay: LanthaScreen TR-FRET competitive binding assay with purified GST-ERα LBD. (In general: In TR-FRET formats the signal depends on donor and acceptor labels being close together.)

The structures appear in SMILES notation.

As to `C[C@@H]1Cc2c([nH]c3ccccc23)[C@@H](c2c(F)cc(/C=C/C(=O)O)cc2F)N1CC(C)(C)F` [AZD9496, (E)-3-(3,5-Difluoro-4-((1R,3R)-2-(2-fluoro-2-methylpropyl)-3-methyl-2,3,4,9-tetra hydro-1H-pyrido[3,4-b]indol-1-yl)phenyl)acrylic Acid], the IC50 (commonly the concentration needed to halve the response being measured) was found to be 14.8 nM.
